## Ab-14 heavy chain CDR variants: yeast mating affinities

Binding partner: SARS-CoV-2 spike HR2 peptide, sequence PDVDLGDISGINAS.

Parent: Ab-14, a human scFv built as VH, the linker GGGGSGGGGSGGGGS, VL. Only the CDRs of the heavy chain vary.
VH: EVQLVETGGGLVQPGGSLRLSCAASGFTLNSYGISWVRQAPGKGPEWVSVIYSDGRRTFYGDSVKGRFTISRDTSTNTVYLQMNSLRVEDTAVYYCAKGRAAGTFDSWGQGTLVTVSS
VL: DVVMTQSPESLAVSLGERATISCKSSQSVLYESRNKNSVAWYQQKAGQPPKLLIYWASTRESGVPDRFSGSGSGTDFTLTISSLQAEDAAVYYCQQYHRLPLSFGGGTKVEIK

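The parent was found by panning a naive human phage display library on the peptide. The variants were designed computationally from a first round of random CDR variants and then made and measured. Group labels follow the data file (Ctrl: baseline library sampled from a position-specific scoring matrix, with some repeated check sequences; GP: Gaussian process model; HC: hill climbing; a sequence that several methods proposed may carry one label only). Affinity was read by AlphaSeq, a pooled yeast mating assay with surface-displayed partners. Mating (16 h, 30 °C) was followed by selection of diploids and sequencing of their barcodes. A regression on co-assayed BCL2-family reference pairs converts the normalised counts of each replicate to an apparent Kd. Mating was done six times.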

Substitutions are numbered in sequence along the VH above, starting at 1 (not Kabat). The read-out is the apparent dissociation constant on a log10 scale (nM): the lower, the stronger. The mean shown is taken over the replicates in which the pair was detected. "n.d." means that the variant was in the library but no mating with the target was seen in that replicate; the authors take this as a sign of poor binding, and no number exists. Empty control strains, which show no peptide, gave a signal in 1% of pairings with all heavy chain designs; the median was 2.08 and 95% of these signals were weaker than 0.84. No background was subtracted. For each scFv, signals with the empty controls are counted beside the result, with their mean in brackets.

changes,group,"replicates, log10 nM",mean log10 Kd (nM),control signals
R56H+R100T,Ctrl,n.d. n.d. n.d. n.d. n.d. n.d.,n.d.,0/18
S31N+R56Q+K65A+G103V,Ctrl,n.d. 1.23 n.d. n.d. n.d. n.d.,1.23,0/18
T28D+G99S+A101C+S107D,Ctrl,n.d. n.d. n.d. n.d. n.d. n.d.,n.d.,0/18
F59A+R100K+S107D,Ctrl,1.61 1.12 1.59 0.72 2.13 2.49,1.61,2/18 (2.19)
A102E,Ctrl,n.d. n.d. n.d. n.d. n.d. n.d.,n.d.,0/18
D106I,Ctrl,n.d. n.d. n.d. n.d. n.d. n.d.,n.d.,0/18
Y52R+D106T,Ctrl,n.d. n.d. n.d. n.d. n.d. n.d.,n.d.,0/18
I34S+A101Q,Ctrl,n.d. n.d. n.d. n.d. n.d. n.d.,n.d.,0/18
G26K+S31N+S53A+F105S,Ctrl,n.d. n.d. n.d. n.d. n.d. n.d.,n.d.,1/18 (0.78)
T28H+R56K+T58R+A101L,Ctrl,n.d. n.d. n.d. n.d. 2.53 1.57,2.05,0/18
N30E+S63F,Ctrl,n.d. n.d. n.d. n.d. n.d. n.d.,n.d.,0/18
F27R+F105W,Ctrl,n.d. n.d. n.d. n.d. n.d. n.d.,n.d.,0/18
F27E+I51D+G61H,Ctrl,n.d. n.d. n.d. n.d. n.d. n.d.,n.d.,0/18
F59Y+R100Y+S107M,Ctrl,n.d. n.d. n.d. n.d. n.d. n.d.,n.d.,0/18
L29I+K65R+G99N+R100E+D106V,Ctrl,n.d. n.d. n.d. n.d. n.d. n.d.,n.d.,1/18 (1.73)
S31E+A101L+D106K+S107M,Ctrl,n.d. n.d. n.d. n.d. 2.24 n.d.,2.24,0/18
F59M,Ctrl,n.d. 0.37 1.37 1.13 0.68 1.36,0.98,0/18
F27N+N30E+F105K,Ctrl,n.d. n.d. n.d. n.d. n.d. n.d.,n.d.,0/18
N30D+G33S+D106I,Ctrl,n.d. n.d. n.d. n.d. n.d. n.d.,n.d.,1/18 (2.53)
G26R+G61T+A101P+F105W,Ctrl,n.d. n.d. n.d. n.d. n.d. n.d.,n.d.,0/18
T28S+R56I+A101W+T104L,Ctrl,n.d. n.d. n.d. n.d. n.d. n.d.,n.d.,0/18
F27Q+L29V+S63D,Ctrl,n.d. n.d. n.d. n.d. n.d. n.d.,n.d.,1/18 (1.58)
T58N+G61T+A101L,Ctrl,1.08 n.d. 2.32 n.d. 2.26 n.d.,1.89,1/18 (1.16)
T28A+A101P+T104S,Ctrl,n.d. n.d. n.d. n.d. n.d. n.d.,n.d.,0/18
N30Q+A101E+S107L,Ctrl,-0.09 0.23 0.13 0.11 0.26 0.53,0.20,0/18
T28A+A102G+G103W,Ctrl,n.d. n.d. n.d. n.d. n.d. n.d.,n.d.,1/18 (1.17)
F27E+G61D+T104D,Ctrl,n.d. n.d. n.d. n.d. n.d. n.d.,n.d.,0/18
I51M+K65R+A101E,Ctrl,0.89 0.97 2.07 0.88 0.59 0.73,1.02,0/18
T28E+S63N+A101R,Ctrl,n.d. n.d. n.d. n.d. n.d. n.d.,n.d.,0/18
N30D+S31D+R56Q+G99I+R100K+T104W,Ctrl,n.d. n.d. n.d. n.d. n.d. n.d.,n.d.,0/18
R57K+R100Q+S107W,Ctrl,n.d. n.d. n.d. n.d. n.d. n.d.,n.d.,0/18
F59A+A101G+D106E,Ctrl,0.17 0.04 -0.06 0.48 -0.51 -0.31,-0.03,0/18
N30D+F59M+A101I,Ctrl,1.65 1.62 0.76 1.28 1.52 2.39,1.54,0/18
S31D+S35P+R56V+F59S+D106V,Ctrl,n.d. n.d. n.d. n.d. n.d. n.d.,n.d.,0/18
S31D+K65R+D106F,Ctrl,n.d. n.d. n.d. n.d. n.d. n.d.,n.d.,0/18
S31K+S53A+F105D,Ctrl,n.d. n.d. n.d. n.d. n.d. n.d.,n.d.,0/18
R100D+A102S,Ctrl,n.d. n.d. n.d. n.d. n.d. n.d.,n.d.,0/18
G61S+T104S,Ctrl,1.99 1.68 n.d. 0.91 2.84 1.59,1.80,0/18
L29I+N30L+G103T+D106E+S107G,Ctrl,n.d. n.d. n.d. n.d. n.d. n.d.,n.d.,0/18
S53A+R100N,Ctrl,-0.06 0.24 -0.68 -0.05 -0.31 0.81,-0.01,1/18 (1.17)
G61K+S63D+A101N,Ctrl,n.d. 0.89 1.31 1.24 1.84 n.d.,1.32,0/18
S31N+F59W+A101E,Ctrl,n.d. n.d. n.d. n.d. 0.39 n.d.,0.39,0/18
L29I+S31T+G61K+R100Y+A102R,Ctrl,n.d. n.d. n.d. n.d. n.d. n.d.,n.d.,0/18
S53A+S63Q,Ctrl+GP_HC,-0.25 -0.37 0.18 0.16 0.90 0.54; 0.73 0.54 1.49 0.94 1.17 0.88,0.58,0/36
G26D+S53A+G99I+R100F,Ctrl,n.d. n.d. n.d. n.d. n.d. n.d.,n.d.,1/18 (1.50)
N30D+S31D+R56L+R100L+D106E,Ctrl,0.76 0.62 0.89 0.49 0.72 0.99,0.75,0/18
F27D+N30S,Ctrl,n.d. n.d. 2.14 1.96 2.55 n.d.,2.22,0/18
I34S+A102G,Ctrl,n.d. n.d. n.d. n.d. n.d. n.d.,n.d.,0/18
S31Q+G61Q+V64M+T104C,Ctrl,n.d. n.d. n.d. n.d. n.d. n.d.,n.d.,0/18
F27D+T28N+G55H+R100G+T104M,Ctrl,n.d. n.d. n.d. n.d. n.d. n.d.,n.d.,0/18
N30E+S31D+S53A+F105G,Ctrl,n.d. n.d. n.d. n.d. n.d. n.d.,n.d.,0/18
T28N+R56L+Y60I,Ctrl,n.d. n.d. n.d. n.d. n.d. n.d.,n.d.,0/18

The last 6 entries again:

changes,group,"replicates, log10 nM",mean log10 Kd (nM),control signals
F27D+N30S,Ctrl,n.d. n.d. 2.14 1.96 2.55 n.d.,2.22,0/18
I34S+A102G,Ctrl,n.d. n.d. n.d. n.d. n.d. n.d.,n.d.,0/18
S31Q+G61Q+V64M+T104C,Ctrl,n.d. n.d. n.d. n.d. n.d. n.d.,n.d.,0/18
F27D+T28N+G55H+R100G+T104M,Ctrl,n.d. n.d. n.d. n.d. n.d. n.d.,n.d.,0/18
N30E+S31D+S53A+F105G,Ctrl,n.d. n.d. n.d. n.d. n.d. n.d.,n.d.,0/18
T28N+R56L+Y60I,Ctrl,n.d. n.d. n.d. n.d. n.d. n.d.,n.d.,0/18

The parent sequence was in this pool as ten entries: three were never detected, three once, and four in most replicates, with averages from 0.34 to 2.37. A sequence that the file lists under several names has all its replicates listed entry by entry, parted by semicolons. A sequence measured in both rounds can read differently, since the two assays cover different ranges. The authors averaged sequences with at least three values out of six and counted those with two or fewer as poor binders.

The measurements come from Li et al. 2023 (doi:10.1038/s41467-023-39022-2) through the FLAb antibody collection.